Measurements published in patent US9404933B2, “Methods for determining patient response to anti-platelet aggregation therapy” (INVITROX, INC., priority 2011, dated 2016).

Tested on: human platelets
Conditions: platelets from 50 patients with a genotype that does not activate Plavix, dosed 75 and 150 mg Plavix; ADP 2 mM, 5 mM, 10 mM; FIG. 14

COC(=O)[C@H](c1ccccc1Cl)N1CCc2sccc2C1 [Plavix, clopidogrel bisulfate]
platelet activation (change of electrophoretic mobility versus resting platelets) after ADP: they all activate
